Format in all cases: in vivo, rat
One assay has as its system immature rats. The assay is described as follows: Induction of ovulation in immature rats (number of ova). To be noted: Group A: hCG 20 IU/animal s.c. Here is the method: (§1) Equine chorionic gonadotropin (eCG, Serotropin, Dainippon Pharmaceutical Co., Ltd.) was dissolved in physiological saline (Otsuka Pharmaceutical Co., Ltd.) in 100 IU/mL. From 9:30 to 10:00 AM, female Wistar rats of 23 days old after birth (Nippon Charles River) received 10 IU of eCG per animal subcutaneously in the back through a 1 mL tuberculin syringe with a 26 gauge needle (both by Terumo). The rats were assigned to the following groups 47 to 48 hours after the administration of eCG, to each of which groups a drug was given.
Group A (five rats): Human chorionic gonadotropin (hCG, Gonadotropin, Dainippon Pharmaceutical Co., Ltd.) was dissolved in physiological saline in 100 IU/mL and 20 IU/animal was subcutaneously administered in the back.
Group B (five rats): Human metastin was dissolved in physiological saline in 100 nmol/mL and 20 nmol/animal was subcutaneously administered in the back. […]
The number of ova was counted as follows.
Where retained ova in the ampulla of uterine tube were confirmed by stereomicroscopic observation of the uterine tube, the ampulla was punctured with a 27-gauge syringe needle (Terumo) to retrieve the ova. After granulosa cells surrounding the ova were removed by trypsin treatment, the number of ova was counted. […]

A further assay concerns estradiol. The assay is described as follows: Level of estradiol in plasma by radioimmunoassay, ovulation induction study. The settings on record: Group A: hCG 20 IU/animal s.c., eCG-primed immature rats, 24-25 h after dosing; FIG. 1. The procedure: as §1
(§2) After administration of the drug described above, the animals were sacrificed after additional 24 to 25 hours by decapitation to collect blood, bilateral uterine tubes and uterus. Before blood collection, 90 μL of 10 KIU/mL aprotinin solution (Trasylol, Bayer) supplemented with 3 mg /mL EDTA was previously filled in a centrifuging tube for collection to prevent blood clotting. After the blood collection, the blood was thoroughly stirred and centrifuged at 2,000 G for 25 minutes. The supernatant was recovered and used as a plasma sample.
The level of estradiol contained in plasma collected from the rats shown in Table 1 was determined by radioimmunoassay (DPC-Estradiol Kit; Diagnostic Products Corporation).

In another assay the test system is progesterone. The assay is described as follows: Level of progesterone in plasma by radioimmunoassay, ovulation induction study. To be noted: Group A: hCG 20 IU/animal s.c., eCG-primed immature rats, 24-25 h after dosing; FIG. 2. The procedure:
as §1, §2
The level of progesterone contained in plasma was determined by radioimmunoassay (DPC.Progesterone; Diagnostic Products Corporation).

Where “and” joins values, the source holds several entries; their conditions need not be identical. Equal entries are not always repeated. Entries after “also recorded” stand apart in the source; their conditions may differ.

On to “hCG: Human chorionic gonadotropin (hCG, Gonadotropin, Dainippon Pharmaceutical Co., Ltd.), conventional ovulation inducer used as comparator”, for which the number of ova with immature rats (47-48 h after eCG 10 IU, ova counted 24-25 h later, individual rats 1-5) was 36 and 35 (2×) and 40 and 42. In the assay with immature rats (eCG-primed immature female Wistar rats, five rats), the “Average number of ova” value is reported as 37.6. Besides, the “level of estradiol contained in plasma” value with estradiol is “no difference; also recorded: decreased”. The “level of progesterone contained in plasma” value in the assay with progesterone is “the highest; also recorded: increased”.

These data come from patent US7754220B2, “Methods of inhibiting secretion of follicle-stimulating hormone and testosterone” (Takeda Pharmaceutical Company Limited, priority 2003, dated 2010).
